Assay results from PMC4409337, “Immucillins Impair Leishmania (L.) infantum chagasi and Leishmania (L.) amazonensis Multiplication In Vitro” (PLoS ONE, 2015).

System: intracellular amastigotes of L. (L.) infantum chagasi
Assay: Replication of intracellular amastigotes in infected peritoneal macrophages (phagocytic index)
Assay type: cell-based, Leishmania (L.) infantum chagasi
Settings: macrophage CC50 / intracellular amastigote EC50

| SMILES | Selectivity index (CC50 value/ EC50 value) |
| --- | --- |
| Nc1ncnc2c(C3N[C@H](CO)[C@@H](O)[C@H]3O)c[nH]c12 (some centres unmarked) [IA] | 377 |
| O=c1[nH]cnc2c(CNC(CO)CO)c[nH]c12 [SMIH] | 113 |
